Ab-14 heavy chain CDR variants: yeast mating affinities

The measurements come from Engelhart et al. 2022 (doi:10.1038/s41597-022-01779-4) through the FLAb antibody collection.

Target peptide (SARS-CoV-2 spike, HR2 region): PDVDLGDISGINAS

Parent scFv Ab-14: VH joined to VL by the linker GGGGSGGGGSGGGGS. Changes lie in the heavy chain CDRs alone.
VH: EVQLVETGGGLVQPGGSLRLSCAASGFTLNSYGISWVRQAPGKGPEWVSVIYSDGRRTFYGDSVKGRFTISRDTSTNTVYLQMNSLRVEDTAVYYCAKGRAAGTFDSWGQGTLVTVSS
VL: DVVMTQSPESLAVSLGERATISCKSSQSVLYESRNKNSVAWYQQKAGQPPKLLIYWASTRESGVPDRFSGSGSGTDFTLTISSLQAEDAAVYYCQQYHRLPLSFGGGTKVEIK

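Variants in AAYL49 differ from the parent at up to three CDR positions; double and triple changes were sampled at random. The scFvs were displayed on barcoded MATa yeast, the peptide on MATalpha yeast. After mating in shaken culture at 30 °C for 16 h, diploids were selected and their barcode pairs sequenced. A regression on co-assayed BCL2-family reference pairs converts the normalised counts of each replicate to an apparent Kd. The assay was run in three technical replicates.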

Each variant's VH is given in full.
Values are log10 of the apparent Kd in nM; lower means stronger binding.
The mean shown is taken over the replicates in which the pair was detected.
A pair that was not seen in that replicate is written "ND"; this usually means weak binding, but a binder can also be missed.
In this assay the parent's reference entry averaged 0.65; its copy inside this library read 4.11 (one replicate of three).
Background: pairings of library AAYL49 with three empty control strains gave a value in 15% of cases (median 4.06, 5th percentile 2.83). Values in that range, when seen in few replicates, are hard to tell from nonspecific mating. The control count says in how many pairings with the empty strains this scFv gave a signal, with their mean in brackets.

VH,"log10 Kd, replicates","log10 Kd (nM), mean",empty controls
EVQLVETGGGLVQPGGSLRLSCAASGFTLNSYAISWVRQAPGKGPEWVSMIYSDGRRTFYGDSVKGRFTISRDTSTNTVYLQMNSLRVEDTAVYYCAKGRAAGTFDSWGQGTLVTVSS,ND ND 2.85,2.85,1/9 (3.49)
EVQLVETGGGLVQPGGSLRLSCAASGFTLNSYGISWVRQAPGKGPEWVSVIYCDGRVTFYGDSVKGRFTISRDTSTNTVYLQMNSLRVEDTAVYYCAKGRAAGTFDSWGQGTLVTVSS,4.35 ND ND,4.35,2/9 (3.90)
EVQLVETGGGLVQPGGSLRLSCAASGFTLNSYGILWVRQAPGKGPEWVSVFASDGRRTFYGDSVKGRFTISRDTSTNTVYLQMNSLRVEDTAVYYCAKGRAAGTFDSWGQGTLVTVSS,ND ND ND,ND,2/9 (4.18)
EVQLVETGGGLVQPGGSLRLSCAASGFTLNSYGISWVRQAPGKGPEWVSVIYSDGEMTFYGDSVKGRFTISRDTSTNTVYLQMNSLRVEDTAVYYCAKGRLAGTFDSWGQGTLVTVSS,ND 4.04 ND,4.04,1/9 (4.78)
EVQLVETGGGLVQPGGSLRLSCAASGHTLPSYGISWVRQAPGKGPEWVSVIYSDGRRFFYGDSVKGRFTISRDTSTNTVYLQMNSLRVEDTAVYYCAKGRAAGTFDSWGQGTLVTVSS,ND ND 4.21,4.21,5/9 (4.68)
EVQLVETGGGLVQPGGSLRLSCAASGFTLLSYGISWVRQAPGKGPEWVSVIYSDGIRTFYGTSVKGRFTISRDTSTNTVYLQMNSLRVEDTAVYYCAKGRAAGTFDSWGQGTLVTVSS,ND ND ND,ND,0/9
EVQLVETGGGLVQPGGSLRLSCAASGFTLNSYGISWVRQAPGKGPEWVSVIYSDGRFHFYGDSVKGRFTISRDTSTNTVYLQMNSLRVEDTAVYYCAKGRAAGTFDPWGQGTLVTVSS,ND ND 5.35,5.35,2/9 (2.87)
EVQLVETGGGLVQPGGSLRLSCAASGFTLNSYGISWVRQAPGKGPEWVSVIYGDGRRTFPGDSVAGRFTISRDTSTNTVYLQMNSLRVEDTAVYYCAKGRAAGTFDSWGQGTLVTVSS,5.03 ND 3.76,4.40,2/9 (4.22)
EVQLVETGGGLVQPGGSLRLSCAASGFTKNSYGISWVRQAPGKGPEWVSVPYSDGRRTFYGDSVKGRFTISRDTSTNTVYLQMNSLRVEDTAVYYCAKGRAAGCFDSWGQGTLVTVSS,4.17 3.39 ND,3.78,4/9 (4.41)
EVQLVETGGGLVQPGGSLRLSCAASGFTLNSYGISWVRQAPGKGPEWVSVIYSDGRRTFYGDSVKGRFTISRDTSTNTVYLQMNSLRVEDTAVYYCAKGRAAFTFDQWGQGTLVTVSS,0.44 0.64 0.54,0.54,3/9 (4.59)
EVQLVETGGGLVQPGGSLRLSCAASGFTLNSYGISWVRQAPGKGPEWVSAIYSDGRRTFYSDSVKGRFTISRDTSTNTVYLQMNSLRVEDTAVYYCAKGRAAGTFFSWGQGTLVTVSS,4.84 ND ND,4.84,1/9 (4.49)
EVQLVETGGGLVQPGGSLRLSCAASGFTLNSYGISWVRQAPGKGPEWVSYIYSDGRRTFYGDSVKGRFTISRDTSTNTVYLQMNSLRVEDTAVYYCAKGRAAGTFNSWGQGTLVTVSS,ND ND ND,ND,0/9
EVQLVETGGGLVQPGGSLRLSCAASGFTLNSYGINWVRQAPGKGPEWVSVIYSDGRRSFYGDSVFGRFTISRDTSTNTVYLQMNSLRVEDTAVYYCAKGRAAGTFDSWGQGTLVTVSS,4.90 ND 3.62,4.26,4/9 (4.90)
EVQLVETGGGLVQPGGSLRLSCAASGFTLNSYGISWVRQAPGKGPEWVSCIYSDGRRTFYVDSVDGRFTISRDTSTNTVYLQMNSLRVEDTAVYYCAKGRAAGTFDSWGQGTLVTVSS,ND ND ND,ND,0/9
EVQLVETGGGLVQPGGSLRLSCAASGFTLLSYGISWVRQAPGKGPEWVSTICSDGRRTFYGDSVKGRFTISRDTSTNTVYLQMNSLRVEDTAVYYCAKGRAAGTFDSWGQGTLVTVSS,ND 2.80 ND,2.80,1/9 (3.66)
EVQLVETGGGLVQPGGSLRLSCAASGFTLNSYGISWVRQAPGKGPEWVSVIYSDGRRTFMGDSVKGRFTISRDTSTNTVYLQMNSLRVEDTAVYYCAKGRGAETFDSWGQGTLVTVSS,ND ND ND,ND,0/9
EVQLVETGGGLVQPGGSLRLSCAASGFTLNSYGISWVRQAPGKGPEWVSKIYSDGRRTWYGDSVYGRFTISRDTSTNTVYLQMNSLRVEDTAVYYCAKGRAAGTFDSWGQGTLVTVSS,4.50 ND ND,4.50,7/9 (4.75)
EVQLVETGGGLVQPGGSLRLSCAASGFTLNSYGISWVRQAPGKGPEWVSVIYSDGRRTFYGDSVKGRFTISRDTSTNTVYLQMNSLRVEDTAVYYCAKGRHAGQFDTWGQGTLVTVSS,0.90 1.13 1.11,1.05,0/9
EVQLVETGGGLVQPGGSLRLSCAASGFTLNSYGISWVRQAPGKGPEWVSVIYIDGRRTFYSDSVKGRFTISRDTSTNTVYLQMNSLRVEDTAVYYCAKGRAAGTFDEWGQGTLVTVSS,ND 3.17 ND,3.17,3/9 (2.85)
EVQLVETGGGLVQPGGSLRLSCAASGFTLNHYGIFWVRQAPGKGPEWVSVIYSDGRRTFYGDSVKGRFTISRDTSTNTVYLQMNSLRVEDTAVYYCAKGRAKGTFDSWGQGTLVTVSS,ND ND ND,ND,0/9
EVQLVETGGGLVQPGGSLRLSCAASGFTENSYGISWVRQAPGKGPEWVSVIYSDGRRTFYNQSVKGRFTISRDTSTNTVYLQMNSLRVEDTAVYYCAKGRAAGTFDSWGQGTLVTVSS,ND 4.61 ND,4.61,4/9 (4.17)
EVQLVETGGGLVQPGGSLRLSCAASGFTLNSYGISWVRQAPGKGPEWVSMIYSSGRITFYGDSVKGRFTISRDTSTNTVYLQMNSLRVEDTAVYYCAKGRAAGTFDSWGQGTLVTVSS,ND ND ND,ND,0/9

Repeated from above, the 2 best binders with a signal in all replicates:

VH,"log10 Kd, replicates","log10 Kd (nM), mean",empty controls
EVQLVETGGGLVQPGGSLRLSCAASGFTLNSYGISWVRQAPGKGPEWVSVIYSDGRRTFYGDSVKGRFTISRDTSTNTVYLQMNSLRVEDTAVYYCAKGRAAFTFDQWGQGTLVTVSS,0.44 0.64 0.54,0.54,3/9 (4.59)
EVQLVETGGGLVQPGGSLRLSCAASGFTLNSYGISWVRQAPGKGPEWVSVIYSDGRRTFYGDSVKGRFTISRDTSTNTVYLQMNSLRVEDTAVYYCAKGRHAGQFDTWGQGTLVTVSS,0.90 1.13 1.11,1.05,0/9